Where “and” joins values, the source holds several entries; their conditions need not be identical. Identical values can stand only once. The entries are a selection whose mix differs from that of the whole data set. Calls of active or inactive are those of the source.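 The calls were made as follows: active = activation above the run's mean compound activation plus 3 SD (cut at about 16% in these data); inactive = the rest.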

The chains behind the UniProt entries cited, without tags or fusion partners. Where a name states a change or a piece, a line headed by the entry shows the natural chain unless it says otherwise.
UniProt P11229: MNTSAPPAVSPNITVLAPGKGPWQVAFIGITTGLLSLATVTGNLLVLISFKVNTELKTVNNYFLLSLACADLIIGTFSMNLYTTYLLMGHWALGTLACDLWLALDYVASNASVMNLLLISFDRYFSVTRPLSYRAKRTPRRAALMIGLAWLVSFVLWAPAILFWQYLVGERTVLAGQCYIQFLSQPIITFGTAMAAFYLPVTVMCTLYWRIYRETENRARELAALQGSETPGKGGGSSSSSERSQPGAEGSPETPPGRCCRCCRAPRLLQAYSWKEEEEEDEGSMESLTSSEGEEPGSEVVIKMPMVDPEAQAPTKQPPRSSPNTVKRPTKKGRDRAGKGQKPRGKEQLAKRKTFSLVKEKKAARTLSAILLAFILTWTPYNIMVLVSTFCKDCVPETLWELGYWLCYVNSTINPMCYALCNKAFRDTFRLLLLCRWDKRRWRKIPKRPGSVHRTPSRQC

This test deals with Muscarinic acetylcholine receptor M1 (Homo sapiens) (UniProt P11229). The test is described as follows: CHRM1 activation via calcium signal – Fluo-8 calcium fluorescence, CHO-K1 cells, HTS, primary screen (AID 588814).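 Also: peak over basal fluorescence ratio within a 140 s kinetic read after compound addition.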 As to conditions: CHO-K1 hM1, Fluo-8 calcium fluorescence, agonist mode; at 3 µM; hits give high values; 0% DMSO, 100% acetylcholine EC100.
Take `CN(C(=O)Cc1ccc(Cl)c(Cl)c1)[C@H]1CC[C@@]2(CCCO2)C[C@@H]1N1CCCC1`: the activation is inactive: -3.46%.

Regarding `O=[N+]([O-])c1ccc2c(c1)nnn2O`, the activation was inactive: -1.05%.

In the case of `CN(C)C(=O)c1cc([N+](=O)[O-])cc2c1-c1c(cc([N+](=O)[O-])cc1[N+](=O)[O-])C2=O`, the activation is inactive: 4.85%.

On to `CCOP1(=S)c2c(C)nn(CCC#N)c2N=C(c2ccc(F)cc2)N1C` (stereo not given), for which the activation is inactive: 2.16%.

As to `CN(C(=O)Cc1ccccc1)[C@@H]1CC[C@]2(CCCO2)C[C@H]1N1CCCC1`, the activation is inactive: -4.02%.

Consider `N#CCCN(C(=O)COC(=O)C(O)(c1ccccc1)c1ccccc1)c1ccc(F)cc1`, for which the activation is inactive: -1.86%.

Consider `COc1ccc(CC(C)NCC(O)c2ccc(O)c(NC=O)c2)cc1` (stereo not given), for which the activation is inactive: -6.9% and inactive: -7.18%.

For `NC(=O)Nc1ccc([As](=O)(O)O)cc1`, the activation was inactive: -3.63%.

On to `O=C(O)COc1ccc([As](=O)(O)O)cc1[N+](=O)[O-]`, for which the activation is inactive: 0.1%.

Turning to `Nc1ccccc1[As](=O)(O)c1ccccc1`, the activation was inactive: -1.65%.

As for `CS(=O)(=O)c1cc([N+](=O)[O-])c2no[n+]([O-])c2c1`, the activation was inactive: -2.04%.

Regarding `O=P(Nc1nccs1)(Oc1ccccc1)Oc1ccccc1`, the activation was inactive: -2.52%.

Turning to `O=P(Nc1nccs1)(c1ccccc1)c1nc2ccccc2s1` (stereo not given), the activation is inactive: -3.41%.

`CCOP1(=S)c2c(C)nn(CCC#N)c2N=C(c2ccccc2F)N1C` (stereo not given): the activation was inactive: -6.39%.

For the compound `CCOP(=O)(Nc1cccc2ccccc12)OCC`, the activation is inactive: -5.81%.

With `COc1cc(C2NCCC3(OCCO3)C2(C)C)cc(OC)c1OC` (stereo not given), the activation is inactive: -6.01%.

On to `CCCOP(=S)(Nc1nc(N)cc(=O)[nH]1)OCCC`, for which the activation is inactive: -5.94%.

In the case of `Nc1cccc2c([As](=O)(O)O)cccc12`, the activation is inactive: 8.19%.

For the compound `Cc1ccc(NCCc2c([N+](=O)[O-])cc([N+](=O)[O-])cc2[N+](=O)[O-])cc1`, the activation is inactive: -3.41%.

`COc1ccc(C[C@H]2NC[C@H](O)[C@H]2OC(C)=O)cc1`: the activation was inactive: -3.53%.

On to `Cc1cccc(OCC(=O)OC2CN3CCC2CC3)c1` (stereo not given), for which the activation was inactive: -4.98%.

Regarding `O=[As](O)(c1cccc(O)c1)c1cccc(O)c1`, the activation was inactive: -1.07%.

On to `CS(=O)(=O)c1ccc(Cl)c(NC(=O)COC(=O)C(O)(c2ccccc2)c2ccccc2)c1`, for which the activation is inactive: 1.59%.

In the case of `O=[As](O)(O)c1cccnc1`, the activation was inactive: -0.98%.

For the compound `O=C(OC1CN2CCC1CC2)c1ccc(Cl)cc1` (stereo not given), the activation is inactive: -9.31%.

On to `CC1(CBr)Cn2c(nc3ccccc3c2=O)S1` (stereo not given), for which the activation was inactive: -3.29%.

As to `CN(C(=O)Cc1ccc(Cl)c(Cl)c1)[C@@H]1CCCC[C@H]1N1CCCC1`, the activation is inactive: -6.99%.

With `CC(C)/C=N\N=C(\N)N[N+](=O)[O-]`, the activation is inactive: -3.53%.

On to `COc1ccccc1CNC(=O)COC(=O)C(O)(c1ccccc1)c1ccccc1`, for which the activation was inactive: -2.84%.

Take `CC(C)(C)C(=O)NC(Sc1ncccn1)C(Cl)(Cl)Cl` (stereo not given): the activation is inactive: -3.03%.

With `Clc1n[nH]nc1-c1nn[nH][15n]1`, the activation is inactive: -1.65%.

Consider `O=P1(N(CCCl)CCCl)NCCC(C(F)(F)F)O1` (stereo not given), for which the activation is inactive: 0.65%.

As for `CCOP(=O)(Nc1ccc(C)cn1)OCC`, the activation is inactive: -4.36%.

In the case of `CN(CCCl)Cc1cc(Cl)c(NC2=NCCN2)c(Cl)c1`, the activation was inactive: -7.53%.

As to `CCOP(=O)(NC(=NC(C)c1ccccc1)NC(C)c1ccccc1)OCC` (stereo not given), the activation is inactive: -0.42%.

For the compound `CCC1=CC2Cc3nc4ccc(Cl)cc4c(N)c3C(C1)C2` (stereo not given), the activation is inactive: -8.15%.

Turning to `O=P1(Nc2ccccn2)COc2ccccc2OC1`, the activation is inactive: 0.07%.

Regarding `O=[As](O)(c1cccs1)c1cccs1`, the activation was inactive: -0.08%.

On to `Cc1ccc(OCC(=O)OC2CN3CCC2CC3)cc1` (stereo not given), for which the activation was inactive: -6.44%.

`NS(=O)(=O)c1cccc(NC(=O)COC(=O)C(O)(c2ccccc2)c2ccccc2)c1`: the activation is inactive: -3.98%.

On to `O=P1(Nc2ccc(Br)cn2)COc2ccccc2OC1`, for which the activation was inactive: -3.51%.

Consider `Nc1cccc([As](=O)(O)c2ccccc2)c1`, for which the activation is inactive: -3.45%.

Consider `O=P1(Nc2ncccn2)COc2ccccc2OC1`, for which the activation is inactive: -2.85%.

In the case of `Cc1ccc(S(=O)(=O)N(CCCN)CCCc2c(C)nc(N)[nH]c2=O)cc1`, the activation was inactive: -11.4%.

For `CCCC1OP(=O)(Nc2ccccc2)OCC1CC` (stereo not given), the activation is inactive: -2.31%.

Regarding `O=C(/C=C/c1ccccc1)OC1CN2CCC1CC2` (stereo not given), the activation is inactive: -4.68%.

Turning to `Cc1ccc(C(=O)OC2CN3CCC2CC3)cc1` (stereo not given), the activation is inactive: -10%.

Turning to `CC1CCC(C(C)C)C(OP(=O)(Nc2ccccn2)c2ccccc2)C1` (stereo not given), the activation was inactive: 0.32%.

Consider `Cc1nn(-c2ccccc2)c2c1P(=O)(N1CCOCC1)N(C)C(c1ccccc1)=N2` (stereo not given), for which the activation is inactive: -5.45%.

Take `O=[N+]([O-])c1ccc(Nc2ccc(Oc3ccc([N+](=O)[O-])cc3[N+](=O)[O-])cc2)c([N+](=O)[O-])c1`: the activation is inactive: -1.39%.

On to `Cc1cc(SC(NC=O)C(Cl)(Cl)Cl)ncn1` (stereo not given), for which the activation was inactive: -2.41%.

For `O=P(Nc1ccccn1)(c1cccc2ccccc12)c1cccc2ccccc12`, the activation was inactive: -3.55%.

Turning to `CCOC(=O)Nc1cccc([As](=O)(O)O)c1`, the activation is inactive: 3.2%.

Take `Cc1cc(SC(NC(=O)c2ccccc2)C(Cl)(Cl)Cl)nc(C(C)C)n1` (stereo not given): the activation is inactive: -6.76%.

Consider `COP(=O)(OC)N1CC1c1ccccc1` (stereo not given), for which the activation is inactive: -3.34%.

Consider `C/C=C1/CC(C)C(C)(O)C(=O)OCC2CCN3CCC(OC1=O)C23` (stereo not given), for which the activation was inactive: -9.15%.

Regarding `CC1CCNP(=O)(N(CCCl)CCCl)O1` (stereo not given), the activation is inactive: -0.91%.

Consider `O=C(O)C(O)c1ccc(N(CCCl)CCCl)cc1` (stereo not given), for which the activation is inactive: -1.54%.

With `CCOC(=O)Nc1ccc([As](=O)(O)O)c(O)c1`, the activation is inactive: -2.16%.

With `CCC(C)N(CC(C)C)C(=S)SC(NC(C)=O)C(Cl)(Cl)Cl` (stereo not given), the activation is inactive: -3.01%.

As to `CCOC(=O)c1ccc(NC(=O)C(C)(CCl)SC)cc1` (stereo not given), the activation is inactive: -3.46%.

Regarding `CSc1ccc(Nc2c([N+](=O)[O-])cc([N+](=O)[O-])cc2[N+](=O)[O-])cc1`, the activation is inactive: -0.32%.

Take `O=C(OC1CN2CCC1CC2)c1cccc([N+](=O)[O-])c1` (stereo not given): the activation was inactive: -8.18%.

For the compound `O=C(Nc1ccncc1[N+](=O)[O-])c1ccc([N+](=O)[O-])cc1[N+](=O)[O-]`, the activation is inactive: -1.52%.

As for `O=C(COc1ccccc1)OC1CN2CCC1CC2` (stereo not given), the activation is inactive: -7.01%.

On to `O=C(O)C(=O)c1ccc(N(CCCl)CCCl)cc1`, for which the activation was inactive: -5.85%.

`COC(=O)C1(C)COP(=O)(N2CCCC2)OC1` (stereo not given): the activation was inactive: 1.98%.

For the compound `COP1(=S)c2c(C)nn(CCC#N)c2N=C(c2ccc(F)cc2)N1C` (stereo not given), the activation is inactive: -5.88%.

For `COc1ccc(N/C(=N/P(=O)(N2CCOCC2)N2CCOCC2)N2CCOCC2)cc1`, the activation is inactive: -5.16%.

Consider `O=[N+]([O-])c1cc(Oc2ccc([N+](=O)[O-])cc2C(F)(F)F)cc([N+](=O)[O-])c1`, for which the activation is inactive: -5.39%.

Regarding `COc1cc(I)ccc1[As](=O)(O)O`, the activation is inactive: -2.73%.

`COc1ccc2nc(NP(=O)(c3ccccc3)c3ccccc3)sc2c1`: the activation is inactive: -6.29%.

On to `O=P1(N(CCCl)CCCl)OCCCN1CCCl` (stereo not given), for which the activation is inactive: -1.48%.

With `O=P1(N(CCCl)CCCl)Nc2ccccc2N1`, the activation was inactive: -1.53%.

`Cc1cc(=O)[nH]c(N[N+](=O)[O-])n1`: the activation is inactive: 1.45%.

For `O=C(OC1CN2CCC1CC2)C12CC3CC(CC(C3)C1)C2` (stereo not given), the activation is inactive: -6.67%.

In the case of `Cc1c2c(nc3ccccc13)SC(C(Cl)Cl)C2` (stereo not given), the activation was inactive: -10.8%.

`O=[N+]([O-])c1cc([N+](=O)[O-])c(-c2ccn[nH]2)s1`: the activation was inactive: -3.82%.

As for `CC(C)NC(=O)NP(=O)(Oc1ccccc1)Oc1ccccc1`, the activation was inactive: -4.04%.

With `O=C(OC1CN2CCC1CC2)c1cccc2[nH]cnc12` (stereo not given), the activation was inactive: -4.21%.

With `CCN(CC)C(=S)SC(NC=O)C(Cl)(Cl)Cl` (stereo not given), the activation was inactive: -1.56%.

As for `COC(=O)C1(C)COP(=O)(N2CCCCCC2)OC1` (stereo not given), the activation is inactive: -0.98%.

For the compound `CC(C)c1ccc(OP(=O)(Nc2ccccn2)Oc2ccccc2F)cc1` (stereo not given), the activation was inactive: 0.73%.

Consider `ClCCSc1nnc(-c2cccnc2)o1`, for which the activation was inactive: -4.42%.

Turning to `Cc1ccc2nc3c(c(C)c2c1)CC(C(Cl)Cl)S3` (stereo not given), the activation is inactive: -8.58%.

Regarding `CC(Cc1ccc(O)cc1)NCC(O)c1cc(O)cc(O)c1` (stereo not given), the activation is inactive: -5.52%.

Regarding `Cc1ccc(OP(=O)(Nc2ccc([N+](=O)[O-])cn2)Oc2ccc(C)cc2)cc1`, the activation is inactive: -3.95%.

As to `O=[N+]([O-])c1ccc(-c2cc([N+](=O)[O-])c(O)c([N+](=O)[O-])c2)cc1`, the activation is inactive: -2.4%.

As to `O=[As](O)(c1ccc(O)cc1)c1ccccc1O`, the activation is inactive: -1.56%.

Turning to `C[As](=O)(O)c1cccc(C(=O)O)c1`, the activation is inactive: -3.45%.

With `CCN(N=Nc1nonc1N)c1nonc1N`, the activation is inactive: -1.3%.

`Nc1cccc2ccc([As](=O)(O)O)cc12`: the activation is inactive: -3.21%.

Consider `CN(C(=O)Cc1ccc(Cl)c(Cl)c1)[C@H]1CCCC[C@@H]1N1CCCC1`, for which the activation was inactive: -6.04%.

In the case of `Cc1ccc(NP(=O)(Oc2ccccc2F)Oc2ccccc2F)nc1`, the activation is inactive: -2.57%.

Regarding `Cc1cc(SC(NC(=O)c2ccc(F)cc2)C(Cl)(Cl)Cl)ncn1` (stereo not given), the activation was inactive: -5.13%.

Turning to `CCOP(=O)(Nc1ccccc1)OCC`, the activation was inactive: -3.51%.

As to `CCCC1OP(N)(=O)OCC1CC` (stereo not given), the activation was inactive: -1.35%.

For `CC(=O)O[C@]1(C)C(=O)OC/C2=C/CN(C)CCC(OC(=O)[C@@](O)(C(C)O)C[C@H]1C)C2=O` (stereo not given in full), the activation was inactive: -4.01%.

Regarding `CC(=O)Nc1ccc([As](=O)(O)O)cc1`, the activation was inactive: -1.14%.

On to `O=C(O)c1ccccc1[As](=O)(O)O`, for which the activation was inactive: 1.02%.

The record behind these values is PubChem BioAssay AID588814 (The Scripps Research Institute Molecular Screening Center, 2011).
